The term IC50 denotes the concentration needed to halve the response being measured.

This test has as its target T1, chymase (Golden hamster, UniProt A0A1U7QTH6).
T1 sequence (A0A1U7QTH6 whole entry): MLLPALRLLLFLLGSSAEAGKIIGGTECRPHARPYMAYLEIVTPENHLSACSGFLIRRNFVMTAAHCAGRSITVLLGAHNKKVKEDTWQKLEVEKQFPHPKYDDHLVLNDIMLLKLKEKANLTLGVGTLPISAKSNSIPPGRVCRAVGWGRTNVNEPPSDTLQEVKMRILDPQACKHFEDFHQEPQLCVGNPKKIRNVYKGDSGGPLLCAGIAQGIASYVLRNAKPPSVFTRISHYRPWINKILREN
The conditions noted are these: IC50 (nM).

In the case of `Cn1c(=O)n(CC(O)C(F)(F)F)c2cc(-n3cc(C(=O)O)c(=O)n([C@@H]4CCc5c4cccc5C(F)(F)F)c3=O)ccc21` (mixture of isomers) [US9481672, 246], the 50% inhibitory concentration (IC50) was 1 nM.
For `CCOC(=O)c1cn(-c2ccc3c(c2)C(C)(O)C(=O)N3C)c(=O)n(Cc2cccc(C(F)(F)F)c2Cl)c1=O` (racemic) [US9481672, 62], the IC50 came to 44 nM.
With `CCOC(=O)c1cn(-c2ccc3c(c2)C(O)(C(F)(F)F)C(=O)N3C)c(=O)n(Cc2cccc(C(F)(F)F)c2C)c1=O` (racemic) [US9481672, 63], inhibition was half-maximal at 37 nM (IC50).
For `CN1C(=O)C(C)(O)c2cc(-n3cc(C(=O)O)c(=O)n(Cc4cccc(C(F)(F)F)c4Cl)c3=O)ccc21` (racemic) [US9481672, 201] the value was 7 nM.
As for `Cn1c(=O)n(C)c2cc(-n3cc(C(=O)O)c(=O)n(C4CCc5c(F)cc(F)cc54)c3=O)ccc21` (racemic) [US9481672, 231], the figure is 21 nM; as for `CCOC(=O)c1cn(-c2ccc3c(c2)sc(=O)n3C)c(=O)n(C2CCc3c(Cl)cc(Cl)cc32)c1=O` (racemic) [US9481672, 249], 200 nM.
Regarding `CCOC(=O)c1cn(-c2ccc3c(c2)n(C)c(=O)n3C)c(=O)n(C(C)c2cccc(C(F)(F)F)c2C)c1=O` (racemic) [US9481672, 251], the IC50 was found to be 420 nM.
As for `CC(c1cccc(C(F)(F)F)c1Cl)n1c(=O)c(C(=O)O)cn(-c2ccc3c(c2)oc(=O)n3C)c1=O` (racemic) [US9481672, 256], the figure is 170 nM; as for `CCOC(=O)c1cn(-c2ccc3c(c2)n(C)c(=O)n3C)c(=O)n(C2CCCc3c(Cl)cccc32)c1=O` (racemic) [US9481672, 269], 14 nM.
The compound `Cn1c(=O)oc2cc(-n3cc(C(=O)O)c(=O)n(C4CCCc5c(Cl)cccc54)c3=O)ccc21` (racemic) [US9481672, 284] gave an IC50 of 11 nM.
As for `CCOC(=O)c1cn(-c2ccc3c(c2)oc(=O)n3C)c(=O)n(C2CCCc3c2cccc3C(F)(F)F)c1=O` (racemic) [US9481672, 290], the figure is 8 nM; as for `Cn1c(=O)oc2cc(-n3cc(C(=O)O)c(=O)n(C4CCCc5c4cccc5C(F)(F)F)c3=O)ccc21` (racemic) [US9481672, 291], 4 nM.
Consider `Cn1c(=O)sc2cc(-n3cc(C(=O)O)c(=O)n(C4CCCc5c4cccc5C(F)(F)F)c3=O)ccc21` (racemic) [US9481672, 296], for which inhibition was half-maximal at 3 nM (IC50).
For `CCOC(=O)c1cn(-c2ccc3c(c2)oc(=O)n3C)c(=O)n(C2COCc3c(Cl)cccc32)c1=O` (racemic) [US9481672, 302] the value was 19 nM; for `Cn1c(=O)oc2cc(-n3cc(C(=O)O)c(=O)n([C@@H]4CCCc5c(Cl)cccc54)c3=O)ccc21` (single isomer, unassigned) [US9481672, 288], 14 nM; for `Cn1c(=O)oc2cc(-n3cc(C(=O)O)c(=O)n([C@H]4CCCc5c(Cl)cccc54)c3=O)ccc21` (single isomer, unassigned) [US9481672, 289], 970 nM.
As for `Cn1c(=O)oc2cc(-n3cc(C(=O)O)c(=O)n([C@@H]4CCCc5c4cccc5C(F)(F)F)c3=O)ccc21` (single isomer, unassigned) [US9481672, 294], the figure is 2 nM.
Regarding `Cn1c(=O)sc2cc(-n3cc(C(=O)O)c(=O)n([C@@H]4CCCc5c4cccc5C(F)(F)F)c3=O)ccc21` (single isomer, unassigned) [US9481672, 300], the concentration for half-maximal inhibition (IC50) is 2 nM.
For `Cn1c(=O)sc2cc(-n3cc(C(=O)O)c(=O)n([C@H]4CCCc5c4cccc5C(F)(F)F)c3=O)ccc21` (single isomer, unassigned) [US9481672, 301] the value was 33 nM; for `CCOC(=O)c1cn(-c2ccc3c(c2)n(C2CCC2)c(=O)n3C)c(=O)n(Cc2cccc(C(F)(F)F)c2C)c1=O` [US9481672, 33], 4 nM.
As for `CCOC(=O)c1cn(-c2ccc3c(c2)oc(=O)n3C)c(=O)n(Cc2cccc(C(F)(F)F)c2Cl)c1=O` [US9481672, 41], the figure is 23 nM; as for `CCOC(=O)c1cn(-c2ccc3c(c2)sc(=O)n3C)c(=O)n(Cc2cccc(C(F)(F)F)c2C)c1=O` [US9481672, 48], 17 nM.
In the case of `CCOC(=O)c1cn(-c2ccc3c(c2)C(C)(C)C(=O)N3C)c(=O)n(Cc2cccc(C(F)(F)F)c2Cl)c1=O` [US9481672, 52], the concentration for half-maximal inhibition (IC50) amounted to 16 nM.
For `CCOC(=O)c1cn(-c2ccc3c(c2)C(C)(C)C(=O)N3C)c(=O)n(Cc2cccc(Cl)c2Cl)c1=O` [US9481672, 56] the value was 67 nM; for `CCOC(=O)c1cn(-c2ccc3c(cnn3C)c2)c(=O)n([C@@H]2CCc3c2cccc3C(F)(F)F)c1=O` [US9481672, 76], 41 nM; for `CCOC(=O)c1cn(-c2ccc3c(cnn3C)c2)c(=O)n(Cc2cccc(C(F)(F)F)c2Cl)c1=O` [US9481672, 89], 84 nM.
For `CCOC(=O)c1cn(-c2ccc3c(c2)n(C(=O)OC(C)(C)C)c(=O)n3C)c(=O)n([C@@H]2CCc3c2cccc3C(F)(F)F)c1=O` [US9481672, 111] the value was 20 nM.
`CCOC(=O)c1cn(-c2ccc3c(c2)n(CC)c(=O)n3C)c(=O)n([C@@H]2CCc3c2cccc3C(F)(F)F)c1=O` [US9481672, 113] showed an IC50 of 6 nM.
Take `CCOC(=O)c1cn(-c2ccc3c(c2)n(CC(O)C(F)(F)F)c(=O)n3C)c(=O)n([C@@H]2CCc3c2cccc3C(F)(F)F)c1=O` (stereo partly specified) [US9481672, 115]: half-maximal inhibition (IC50) required 10 nM.
The compound `CCOC(=O)c1cn(-c2ccc3c(c2)n(CCC(F)(F)F)c(=O)n3C)c(=O)n([C@@H]2CCc3c2cccc3C(F)(F)F)c1=O` [US9481672, 116] yielded a half-inhibitory concentration (IC50) of 20 nM.
As for `CCOC(=O)c1cn(-c2ccc3c(c2)n(C2CC2)c(=O)n3C)c(=O)n([C@@H]2CCc3c2cccc3C(F)(F)F)c1=O` [US9481672, 117], the figure is 3 nM; as for `Cn1c(=O)n(C)c2cc(-n3cc(C(=O)O)c(=O)n(Cc4cccc(F)c4C(F)(F)F)c3=O)ccc21` [US9481672, 125], 6 nM.
Compound `Cn1c(=O)n(C)c2cc(-n3cc(C(=O)O)c(=O)n(Cc4cc(F)cc(Cl)c4)c3=O)ccc21` [US9481672, 129] gave a concentration for half-maximal inhibition (IC50) of 450 nM.
Consider `CCn1c(=O)n(C)c2ccc(-n3cc(C(=O)O)c(=O)n(Cc4cccc(Cl)c4C(F)(F)F)c3=O)cc21` [US9481672, 139], for which 2 nM corresponded to half-maximal inhibition (IC50).
As to `CCn1c(=O)n(C)c2ccc(-n3cc(C(=O)O)c(=O)n(Cc4cccc(C(F)(F)F)c4Cl)c3=O)cc21` [US9481672, 140], it took 1 nM to reach half-maximal inhibition (IC50).
As for `Cn1nnc2cc(-n3cc(C(=O)O)c(=O)n(Cc4cccc(Cl)c4Cl)c3=O)ccc21` [US9481672, 156], the figure is 12 nM; as for `Cn1cnc2cc(-n3cc(C(=O)O)c(=O)n(Cc4cccc(Cl)c4C(F)(F)F)c3=O)ccc21` [US9481672, 161], 53 nM.
For `Cc1nc2cc(-n3cc(C(=O)O)c(=O)n(Cc4cccc(F)c4C(F)(F)F)c3=O)ccc2n1C1CCCCC1` [US9481672, 169], the half-inhibitory concentration (IC50) is 370 nM.
Regarding `CC(C)n1cnc2cc(-n3cc(C(=O)O)c(=O)n(Cc4cccc(C(F)(F)F)c4Cl)c3=O)ccc21` [US9481672, 171], the IC50 was 17 nM.
As for `Cn1ncc2cc(-n3cc(C(=O)O)c(=O)n([C@@H]4CCc5c4cccc5C(F)(F)F)c3=O)ccc21` [US9481672, 176], the figure is 29 nM; as for `CCn1c(=O)oc2cc(-n3cc(C(=O)O)c(=O)n(Cc4cccc(C(F)(F)F)c4C)c3=O)ccc21` [US9481672, 192], 5 nM; as for `CN1C(=O)OCc2cc(-n3cc(C(=O)O)c(=O)n([C@@H]4CCc5c4cccc5C(F)(F)F)c3=O)ccc21` [US9481672, 204], 39 nM.
Regarding `Cc1c(Cn2c(=O)c(C(=O)O)cn(-c3ccc4c(c3)N(C)C(=O)C4(C)C)c2=O)cccc1C(F)(F)F` [US9481672, 205], half-maximal inhibition (IC50) was put at 3 nM.
As for `CC(=O)N1CC(C)(C)c2ccc(-n3cc(C(=O)O)c(=O)n(Cc4cccc(C(F)(F)F)c4C)c3=O)cc21` [US9481672, 213], the figure is 18 nM; as for `CN1C(=O)C(C)(C)c2cc(-n3cc(C(=O)O)c(=O)n(Cc4cccc(C(F)(F)F)c4Cl)c3=O)ccc21` [US9481672, 218], 4 nM.
In turn, `CN1C(=O)C(C)(C)c2cc(-n3cc(C(=O)O)c(=O)n(Cc4cccc(Cl)c4C(F)(F)F)c3=O)ccc21` [US9481672, 220] had an IC50 of 6 nM.
`CN1C(=O)C2(CC2)c2cc(-n3cc(C(=O)O)c(=O)n(Cc4cccc(C(F)(F)F)c4Cl)c3=O)ccc21` [US9481672, 225] displayed an IC50 of 4 nM.
As for `Cc1c(Cn2c(=O)c(C(=O)O)cn(-c3ccc4c(c3)C3(CC3)C(=O)N4C)c2=O)cccc1C(F)(F)F` [US9481672, 226], the figure is 3 nM.
As for `Cn1c(=O)n(CC(F)(F)F)c2cc(-n3cc(C(=O)O)c(=O)n([C@@H]4CCc5c4cccc5C(F)(F)F)c3=O)ccc21` [US9481672, 241], the figure is 2 nM.
For `Cc1cc2[nH]c(=O)[nH]c2cc1-n1cc(C(=O)O)c(=O)n(Cc2cccc(C(F)(F)F)c2Cl)c1=O` [US9481672, 264] the value was 31 nM; for `CCOC(=O)c1cn(-c2ccc3c(c2)OCC(=O)N3C)c(=O)n(Cc2cccc(C(F)(F)F)c2C)c1=O` [US9481672, 266], 59 nM.
